Reference: patent US12559750B2, “Methods and compositions for treatment of polycystic kidney disease” (Regulus Therapeutics Inc., priority 2021, dated 2026)

Target: AMPA-R
Experiment: [3H]AMPA radioligand binding assay on rat brain synaptic membranes;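 note: competition binding in which test compounds at rising concentrations displace [3H]AMPA from AMPA-R on rat brain synaptic membranes, with reduced bound radioligand as read-out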
Conditions: Table 8

IC50: ≥ 100 µM
Sequence: ASGSCMAFCFUFUMUSED [RG-NG-1039]
